Where a name gives a salt, the structure may show the parent alone. Read-outs that look alike come from different tables or passages of the source.

The chains behind the UniProt entries cited, without tags or fusion partners. Where a name states a change or a piece, a line headed by the entry shows the natural chain unless it says otherwise.
UniProt P11511: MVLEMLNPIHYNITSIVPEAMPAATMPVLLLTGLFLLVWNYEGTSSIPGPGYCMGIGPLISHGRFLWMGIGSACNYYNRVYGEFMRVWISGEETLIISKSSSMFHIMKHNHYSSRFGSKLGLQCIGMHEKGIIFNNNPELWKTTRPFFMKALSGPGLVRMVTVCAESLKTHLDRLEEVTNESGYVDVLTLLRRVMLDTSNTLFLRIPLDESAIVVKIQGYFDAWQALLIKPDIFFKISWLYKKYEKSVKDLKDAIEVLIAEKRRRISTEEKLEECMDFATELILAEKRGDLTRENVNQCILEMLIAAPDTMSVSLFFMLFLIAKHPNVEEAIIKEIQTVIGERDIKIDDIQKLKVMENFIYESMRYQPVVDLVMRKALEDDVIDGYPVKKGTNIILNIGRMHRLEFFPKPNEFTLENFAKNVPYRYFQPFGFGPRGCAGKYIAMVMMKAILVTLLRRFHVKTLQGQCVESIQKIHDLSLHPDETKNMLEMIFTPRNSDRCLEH

One assay addresses T1, human placental CYP19 (Homo sapiens, UniProt P11511).
T1 construct: The enzyme was obtained from the microsome fraction of fresh human placenta; from tissue; host or cells: human placenta, microsomal fraction
Put plainly: IC50 of CYP19 (human placental microsomes). The class given is biochemical. Particulars: testosterone substrate 2.5 μM.

For another assay, the target named is T2, human CYP11B2 (Homo sapiens, UniProt P19099).
T2 sequence (P19099 25-503): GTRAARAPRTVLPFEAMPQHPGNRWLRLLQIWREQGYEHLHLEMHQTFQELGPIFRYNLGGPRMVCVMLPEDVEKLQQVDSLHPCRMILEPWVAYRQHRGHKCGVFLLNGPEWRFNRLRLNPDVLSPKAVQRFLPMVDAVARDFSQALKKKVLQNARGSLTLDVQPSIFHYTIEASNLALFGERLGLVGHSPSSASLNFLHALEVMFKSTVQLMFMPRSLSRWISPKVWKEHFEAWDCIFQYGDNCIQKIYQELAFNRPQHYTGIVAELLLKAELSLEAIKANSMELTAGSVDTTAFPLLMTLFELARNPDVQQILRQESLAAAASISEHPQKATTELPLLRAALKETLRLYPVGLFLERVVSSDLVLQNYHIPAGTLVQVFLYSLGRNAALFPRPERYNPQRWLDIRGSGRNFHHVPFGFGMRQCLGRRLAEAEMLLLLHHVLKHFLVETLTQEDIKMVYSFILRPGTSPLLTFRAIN
Put plainly: V79 MZh 11B2 cells inhibition test. In kind it is cell-based. Also noted: expressed in transfected cells; host or cells: V79 MZh11B2 (Chinese hamster lung fibroblasts).

A further assay concerns the target T3, human CYP11B1 (Homo sapiens, UniProt P15538).
T3 sequence (P15538 25-503): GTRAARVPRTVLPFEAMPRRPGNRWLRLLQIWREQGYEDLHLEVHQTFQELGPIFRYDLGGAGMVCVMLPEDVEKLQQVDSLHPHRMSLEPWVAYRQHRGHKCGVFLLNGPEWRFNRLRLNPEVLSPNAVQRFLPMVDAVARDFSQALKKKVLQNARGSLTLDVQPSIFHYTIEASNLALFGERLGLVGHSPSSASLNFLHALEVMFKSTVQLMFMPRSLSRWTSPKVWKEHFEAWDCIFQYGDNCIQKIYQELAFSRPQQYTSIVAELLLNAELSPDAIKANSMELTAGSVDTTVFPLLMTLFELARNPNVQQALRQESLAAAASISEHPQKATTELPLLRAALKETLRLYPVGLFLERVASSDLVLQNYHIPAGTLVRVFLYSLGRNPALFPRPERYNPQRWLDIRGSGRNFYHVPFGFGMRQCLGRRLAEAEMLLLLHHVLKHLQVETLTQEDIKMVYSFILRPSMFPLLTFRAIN
Put plainly: V79 MZh 11B1 cells inhibition test.

Setting [1] is: hamster fibroblasts which express human CYP11B2, deoxycorticosterone substrate 100 nM, read-out: IC50 V79 11B2 hCYP11B2.

On human placental CYP19, `C(=C1/CCc2ccccc21)/c1cnc[nH]1` [Compound 42a, 5-[(E)-2,3-Dihydro-1H-indane-1-ylidenemethyl]-1H-imidazole] returned an IC50 of 955 nM.
For the compound `C(=C1\CCc2ccccc21)/c1cnc[nH]1` [Compound 42b, 5-[(Z)-2,3-Dihydro-1H-ind-1-ylidenemethyl]-1H-imidazolium oxalate], the half-inhibitory concentration (IC50) against human placental CYP19 amounted to 130 nM.
Regarding `N#Cc1ccc2c(c1)CCC/C2=C/c1cnc[nH]1.O=C(O)C(=O)O` [Compound 44b, (5Z)-5-(1H-Imidazole-5-ylmethylene)-5,6,7,8-tetrahydronaphthalene-2-carbonitrile oxalate], the IC50 at human CYP11B2 (setting [1]) is 22.7 nM; against human placental CYP19 it was 125 nM.
Regarding `N#Cc1ccc2c(c1)CC/C2=C\c1cnc[nH]1.O=C(O)C(=O)O` [Compound 45a, (1E)-1-(1H-Imidazole-5-ylmethylene)indane-5-carbonitrile oxalate], the results for the IC50 at human CYP11B2 (setting [1]) and on human placental CYP19 were 35.9 nM and 119 nM, respectively.
Turning to `N#Cc1ccc2c(c1)CC/C2=C/c1cnc[nH]1.O=C(O)C(=O)O` [Compound 45b, (1Z)-1-(1H-Imidazole-5-ylmethylene)indane-5-carbonitrile oxalate], the IC50 turned out to be 35.7 nM at human CYP11B2 and 12.3 nM on human CYP11B1.
`Fc1ccc2c(c1)CC/C2=C\c1cnc[nH]1` [Compound 47a, 5-[(E)-(5-Fluoro-2,3-dihydro-1H-indene-1-ylidenemethyl]-1H-imidazolium chloride]: on human placental CYP19, 218 nM corresponded to half-maximal inhibition (IC50).

Values taken from patent US20090105278A1, “Selective inhibitors of human corticosteroid syntheses” (Universitat Des Saarlandes, priority 2004, published 2009).
